Among the data in ChEMBL document CHEMBL1781999, “Lead optimization of aryl and aralkyl amine-based triazolopyrimidine inhibitors of Plasmodium falciparum dihydroorotate dehydrogenase with antimalarial activity in mice” (J Med Chem, 2011) are IC50 values, retold here.

The experiment has as its target T1, Dihydroorotate dehydrogenase (Plasmodium falciparum, UniProt Q54A96).
T1 sequence (Q54A96 whole entry): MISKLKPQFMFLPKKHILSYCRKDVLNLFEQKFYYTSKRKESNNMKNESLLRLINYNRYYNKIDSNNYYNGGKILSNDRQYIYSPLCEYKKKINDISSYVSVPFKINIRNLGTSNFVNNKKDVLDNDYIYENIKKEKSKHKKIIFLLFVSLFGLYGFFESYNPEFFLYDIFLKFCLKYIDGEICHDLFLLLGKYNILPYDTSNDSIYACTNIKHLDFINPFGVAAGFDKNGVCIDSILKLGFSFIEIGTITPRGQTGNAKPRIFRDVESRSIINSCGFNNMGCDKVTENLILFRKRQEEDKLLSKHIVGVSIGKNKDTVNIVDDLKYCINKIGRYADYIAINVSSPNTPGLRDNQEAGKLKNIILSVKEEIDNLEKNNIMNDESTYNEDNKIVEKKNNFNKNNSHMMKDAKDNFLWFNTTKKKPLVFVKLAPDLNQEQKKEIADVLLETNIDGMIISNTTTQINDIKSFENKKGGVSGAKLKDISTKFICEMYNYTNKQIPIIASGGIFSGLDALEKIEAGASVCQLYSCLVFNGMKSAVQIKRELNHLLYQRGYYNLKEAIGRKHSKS
The experiment is described as follows: Inhibition of His6-tagged recombinant Plasmodium falciparum dihydroorotate dehydrogenase expressed in Escherichia coli using L-dihydroorotate as substrate after 5 to 10 mins by DCIP dye-based assay.

For `C=Cc1ccc(Nc2cc(C)nc3ncnn23)cc1`, the IC50 (usually the concentration at which inhibition is half-maximal) was 0.8 µM.
With `Cc1cc(Nc2ccc(C(C)(C)C#N)cc2)n2ncnc2n1` the figure was 1 µM.
